Values quoted from earlier work in patent US20030073115A1 (priority 2002, published 2003).

Tests used:
[1] = test system: Galanin receptors in the dorsal hippocampus
galanin binding sites = conditions: read-out: affinity of galanin binding sites for 125I-porcine galanin; brain, spinal cord, pancreatic islets and cell lines, gastrointestinal smooth muscle
[2] = test system: pituitary galanin receptor; conditions: rat pituitary
CNS galanin receptors = conditions: CNS / brain
[3] = test system: galanin binding site in guinea pig stomach

Gal (1-29): galanin 1-29
affinity [1]: not

^125I-porcine galanin: 125I-labeled porcine galanin, radioligand
Kd (galanin binding sites): 0.5 to 1 nM

[^125I]Tyr^26-porcine galanin: porcine galanin 125I-labeled at Tyr26
binding [2]: not

Porcine galanin 3-29: fragment 3-29 of porcine galanin
activity at CNS galanin receptors (CNS galanin receptors): inactive
affinity [3]: high affinity

^125I-Bolton and Hunter (N-terminus)-labeled galanin (1-29): N-terminally 125I-Bolton and Hunter labeled galanin (1-29)
binding [2]: high-affinity binding
